# Source: BindingDB's records for doi:10.1021/acs.jmedchem.8b00327 (2019)
# Biological target: T1, Glutaminase kidney isoform, mitochondrial (Homo sapiens, UniProt O94925)
# T1 sequence (O94925 whole entry): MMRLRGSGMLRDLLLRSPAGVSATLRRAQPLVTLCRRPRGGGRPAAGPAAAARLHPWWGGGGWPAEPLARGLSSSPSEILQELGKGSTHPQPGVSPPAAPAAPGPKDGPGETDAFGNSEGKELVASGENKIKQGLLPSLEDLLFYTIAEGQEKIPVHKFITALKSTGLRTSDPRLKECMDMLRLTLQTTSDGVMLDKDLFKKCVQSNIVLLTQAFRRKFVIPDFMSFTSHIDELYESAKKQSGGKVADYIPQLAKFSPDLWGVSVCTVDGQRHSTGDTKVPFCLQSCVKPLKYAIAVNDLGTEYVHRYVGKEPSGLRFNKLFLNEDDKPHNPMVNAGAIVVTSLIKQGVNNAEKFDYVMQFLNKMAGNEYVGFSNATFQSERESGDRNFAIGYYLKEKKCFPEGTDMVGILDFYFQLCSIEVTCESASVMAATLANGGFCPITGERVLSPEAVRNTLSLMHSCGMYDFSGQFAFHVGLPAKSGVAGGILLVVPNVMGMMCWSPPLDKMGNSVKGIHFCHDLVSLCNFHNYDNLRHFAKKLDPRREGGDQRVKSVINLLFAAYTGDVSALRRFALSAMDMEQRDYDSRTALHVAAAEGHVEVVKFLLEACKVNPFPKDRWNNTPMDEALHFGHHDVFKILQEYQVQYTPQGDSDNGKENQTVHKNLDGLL
# Assay: Inhibition of GAC (unknown origin) assessed as NADH formation using 10 mM glutamine as substrate preincubated for 60 mins
compound,measurement,value
O=C(Cc1ccccc1)Nc1nnc(CCCCc2nnc(NC(=O)Cc3ccccc3)o2)o1,IC50,> 20 µM
